Results published in publication PMC6814797, “C-terminal–modified LY2510924: a versatile scaffold for targeting C-X-C chemokine receptor type 4” (Scientific Reports, 2019).

The chains behind the UniProt entries cited, without tags or fusion partners.
UniProt P61073, whole entry: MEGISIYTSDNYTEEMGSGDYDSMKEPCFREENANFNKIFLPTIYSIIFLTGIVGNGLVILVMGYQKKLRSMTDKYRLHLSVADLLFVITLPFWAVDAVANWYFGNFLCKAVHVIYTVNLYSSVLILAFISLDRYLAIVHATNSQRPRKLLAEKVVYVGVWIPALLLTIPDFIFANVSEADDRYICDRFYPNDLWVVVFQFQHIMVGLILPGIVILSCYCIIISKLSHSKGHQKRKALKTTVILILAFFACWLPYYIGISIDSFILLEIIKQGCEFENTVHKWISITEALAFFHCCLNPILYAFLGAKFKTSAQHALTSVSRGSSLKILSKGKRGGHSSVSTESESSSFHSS

Target: T1, CXCR4 (Homo sapiens, UniProt P61073)
T1 construct: were determined with CCRF-CEM cells expressing endogenous CXCR4; endogenous in cells; host or cells: CCRF-CEM (human acute lymphoblastic leukemia) whole cells
Test: Competitive binding assay: displacement of 125I-SDF-1α from CXCR4-expressing CCRF-CEM cells
Details: CCRF-CEM 0.5 × 10^6 cells, 125I-SDF-1α 1 kBq, 0.25 nM SDF-1α, one hour, room temperature per method (b54 says 37 °C); mean ± SD, n = 3
Experimental: CCRF-CEM cells and ^125I-SDF-1α were used for the competitive binding assay. The competitive binding assay was performed in a 96-well MultiScreen HTS FB plate (Merck) treated with 0.1% polyethyleneimine. RPMI-1640 containing 1% bovine serum albumin (BSA) and 0.05% Tween20 was used for the assay buffer. Briefly, 200-μL reaction mixtures containing CCRF-CEM (0.5 × 10^6 cells), ^125I-SDF-1α (1 kBq), SDF-1α (0.05 pmol; R&D Systems, Minneapolis, MN), and varying concentrations of CXCR4 antagonists were incubated at room temperature for one hour. After the incubation, the cells were washed three times with the assay buffer, and radioactivity counts of cells were determined with a gamma counter. The IC50 values were calculated by using GraphPad Prism version 5.04 (GraphPad Software, San Diego, CA).
Since the purpose of this study was to assess in vivo accumulation to CXCR4-expressing cells, the apparent binding affinities were determined at 37 °C. […] The half-maximal inhibitory concentration (IC50) values of FRM001, its Ga-, Lu-, and Y-complexes, and other CXCR4 antagonists were determined with CCRF-CEM cells expressing endogenous CXCR4[34]. The displacement of ^125I-SDF-1α bound to the CXCR4 with the compounds was also evaluated in the presence of 0.25 nM of SDF-1α.

With N=C(N)NCCC[C@@H]1NC(=O)[C@H](CCCNC(=N)N)NC(=O)[C@@H](Cc2ccc(O)cc2)NC(=O)CNC(=O)[C@H](Cc2ccc3ccccc3c2)NC1=O [FC131, cyclo[D-Tyr-Arg-Arg-2-Nal-Gly], reference compound] the IC50 was 0.0131 ± 0.0011 µM.
